# Where “and” joins values, the source holds several entries; their conditions need not be identical. Identical values can stand only once. Only a part is listed here, and it is no random draw. Calls of active or inactive are those of the source. Calls follow the shape of the dose curve; as a rule, active = well fitted inhibition curve with a large enough effect; inconclusive = small, poorly fitted or top-dose-only effect, or effect the other way, or another doubt; inactive = no such curve, though single readings can be large or run the other way.
# Target: Lysosomal alpha-glucosidase (Homo sapiens) (UniProt P10253)
# Test: qHTS Assay for Inhibitors and Activators of Human alpha-Glucosidase From Spleen Homogenate;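 also: 0% = enzyme with vehicle and -100% = no enzyme basal signal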
# Details: 4-MU-alpha-glucoside fluorescence; at 79.9 µM (top of the series) unless noted
# Text: NIH Chemical Genomics Center [NCGC] NIH Molecular Libraries Probe Production Centers Network [MLPCN] MLPCN Grant: R03 MH084841-01 Assay Submitter (PI): Wei Zheng NCGC Assay Overview: Alpha-glucosidase is responsible for the hydrolysis of terminal, non-reducing 1,4-linked alpha-D-glucose residues, which releases alpha-D-glucose. It is a lysosomal hydrolase that is required for the degradation of a small percentage (1-3%) of cellular glycogen in humans. Deficiency of this enzyme results in glycogen-storage disease type II (GSDII), also referred to as Pompe disease, an autosomal recessive disorder. Structurally normal glycogen is accumulated in the lysosomes and cytoplasm in affected patients, primarily in muscle tissues. Excessive glycogen storage within lysosomes may interrupt normal functioning of other organelles and leads to cellular injury. In turn, this leads to enlargement and dysfunction of the entire organ involved (eg: cardiomyopathy and muscle weakness). It has been reported that the improper folding and trafficking of alpha-glucosidase resulting from genetic mutations may account for a significant number of Pompe patients. […] We optimized this alpha-glucosidase assay in 1536-well plate format for identification of novel small molecule inhibitors or activators with structures other than the sugar analogs in order to develop new pharmacological chaperones. In particular, this assay is directed towards discovering compounds active in a more natural setting, tissue homogenate, that may have been missed by screens of the purified enzyme under more stringent conditions.
# NCGC Assay Protocol Summary: This is a fluorogenic enzyme assay with 4-methylumbelliferyl-alpha-D-glucopyranoside as the substrate and human spleen homogenate containing alpha-glucosidase as the enzyme preparation. Upon hydrolysis of this fluorogenic substrate, the resulting product, 4-methylumbelliferone (which excites at 365 nm and emits at 440 nm) can be detected by a fluorescence plate reader. Data were normalized to the controls for basal activity (without enzyme) and 100% activity (with enzyme). The AC50 values were determined from concentration-response data modeled with the standard Hill equation. Assay buffer: 50 mM citric acid (titrated with potassium phosphate to pH 5.0), 0.01% Tween-20 (pH 5.0 is an optimal condition for this enzyme assay) 1536-well assay protocol for the alpha-glucosidase from human spleen homogenate: (1) Add 2 ul/well spleen homogenate (1 ug) (2) Add 23 nL compounds in DMSO solution. The final titration was 0.5 nM to 58 uM. (3) Add 2 ul of substrate (1 mM final) (4) Incubate at 37 C for 40 min (5) Add 2 ul stop solution (1M NaOH and 1M Glycine mixture, pH 10) (6) Detect the assay plate in a ViewLux plate reader (PerkinElmer) with Ex=365 nm and Em=440nm. Keywords: Alpha-glucosidase, Pompe Disease, pharmacological chaperone, chaperone therapy, high throughput screening, alpha-glucosidase inhibitor, MLSMR, MLSCN, NIH Roadmap, qHTS and NCGC
row,SMILES,"activity change, negative = inhibition"
1,O=C(/C=C/c1ccccc1)OC1CN2CCC1CC2 (stereo unspecified),inactive: -2.04%
2,O=P1(Nc2ncccn2)COc2ccccc2OC1,inactive: 0.678%
3,Nc1cccc([As](=O)(O)c2ccccc2)c1,inactive: 1.49%
4,Cc1ccc(OCC(=O)OC2CN3CCC2CC3)cc1 (stereo unspecified),inactive: -1.52%
5,O=[As](O)(c1cccs1)c1cccs1,inactive: 4.49%
6,O=P1(Nc2ccc(Br)cn2)COc2ccccc2OC1,inactive: -0.592%
7,O=P1(Nc2ccccn2)COc2ccccc2OC1,inactive: 3.76%
8,CCOP(=O)(Nc1ccc(C)cn1)OCC,inactive: -3.5%
9,CN(CCCl)Cc1cc(Cl)c(NC2=NCCN2)c(Cl)c1,inactive: 1.83% and inactive: -10.3%
10,Clc1n[nH]nc1-c1nn[nH][15n]1,inactive: -18.6%
11,CC(C)(C)C(=O)NC(Sc1ncccn1)C(Cl)(Cl)Cl (stereo unspecified),inactive: 0.0881%
12,O=[As](O)(c1ccccc1Br)c1ccccc1Br,inactive: -11.2%
13,CC(C)C(=O)NC(Sc1ccccc1)C(Cl)(Cl)Cl (stereo unspecified),inactive: -11.7%
14,O=P(Nc1nccs1)(c1ccccc1)c1ccccc1,inactive: 1.86%
15,c1nnnn1CCn1cnnn1,inactive: -1.87%
16,CCC(C)(OOC(C)(C)C)OOC(C)(C)C,inactive: 1.09%
17,O=P(Nc1ccccn1)(c1ccc(Br)cc1)c1ccc(Br)cc1,inactive: 5.53%
18,Cc1cc([N+](=O)[O-])cc([N+](=O)[O-])c1O,inactive: -7.07%
19,O=P(Nc1nc2ccccc2s1)(c1ccccc1)c1ccccc1,inactive: 0.43%
20,C[C@H]1OP(=O)(Oc2ccccc2)[C@H](O)[C@H](O)[C@H]1N=[N+]=[N-] (stereo partly specified),inactive: -9.84%
21,O=[As](O)(c1ccccc1)c1ccc(O)cc1,inactive: 4.69%
22,CC(=O)NC(SC(=S)N(C)C)C(Cl)(Cl)Cl (stereo unspecified),inactive: -4.65%
23,O=[N+]([O-])c1ncn(CCn2cnc([N+](=O)[O-])n2)n1,inactive: -2.79%
24,O=C(OC1CN2CCC1CC2)c1cccc(Cl)c1 (stereo unspecified),inactive: -4.53%
25,C(Cc1nn[nH]n1)Cc1nn[nH]n1,inactive: -9.6%
26,Nc1ccc([As](=O)(O)c2ccc([N+](=O)[O-])cc2)cc1,inactive: 4.17%

row,SMILES,"activity change, negative = inhibition"
1,c1ccc(-c2nn[nH]n2)c(-c2nn[nH]n2)c1,inactive: -2.41%
2,Cc1ccc(NP(=O)(Oc2cccc(C)c2)Oc2cccc(C)c2)nc1,inactive: 3.84%
3,CCOC(=O)NC(Sc1ccccc1)C(Cl)(Cl)Cl (stereo unspecified),inactive: -9.78%
4,CCNC(=S)/N=C(\N)N[N+](=O)[O-],inactive: 2.13%
5,O=C(NC1CCS(=O)(=O)C1)NP(=S)(Oc1ccccc1)Oc1ccccc1 (stereo unspecified),inactive: 5.48%
6,CCC(=O)N1C2C3N(C(=O)CC)C1C1N(C(=O)CC)C(C(N1C(=O)CC)N3C(=O)CC)N2C(=O)CC,inactive: -4.78%
7,COC(=O)c1cc2c(s1)N=C(c1ccccc1)N(C)P2(=O)N1CCOCC1 (stereo unspecified),inactive: -0.89%
8,CC(=O)NC(SC(=S)N(CC(C)C)CC(C)C)C(Cl)(Cl)Cl (stereo unspecified),inactive: -4.56%
9,Cc1ccc(OP(=O)(Nc2ccccn2)Oc2ccc(C)cc2)cc1,inactive: 0.638%
10,Cc1ccccc1OP(=O)(Nc1ccccn1)Oc1ccccc1C,inactive: -0.135%
11,O=c1c2cc([N+](=O)[O-])ccc2[nH]c2c([N+](=O)[O-])cc([N+](=O)[O-])cc12,inactive: -0.867%
12,CN(C)C(=O)Oc1noc2ccccc12,inactive: -1.34%
13,O=P1(Nc2nc3ccc(Cl)cc3s2)COc2ccccc2O1 (stereo unspecified),inactive: -20%
14,CCOc1ccc(C2=NCC(CBr)S2)cc1 (stereo unspecified),inactive: -0.0699%
15,CC(C)(C)C(=O)NC(Sc1ccccc1)C(Cl)(Cl)Cl (stereo unspecified),inactive: 5.77%
16,C[C@H]1OP(=O)(Oc2ccccc2)C[C@@H]2O[C@@H]21 (stereo partly specified),inactive: -8.59%
17,C[C@@H]1C=CCP(=O)(Oc2ccccc2)O1 (stereo partly specified),inactive: -2.98%
18,CC(=O)Nc1ccc([As](=O)(O)O)c(O)c1,inactive: 5.15%
19,CC(=O)Nc1ccc(Oc2c([N+](=O)[O-])cc([N+](=O)[O-])cc2[N+](=O)[O-])cc1,inactive: -10.9%
20,Cc1ccc(N/C(=N/P(=O)(N2CCOCC2)N2CCOCC2)N2CCOCC2)cc1,inactive: 0.672%
21,NC(=O)c1cc([N+](=O)[O-])cc([N+](=O)[O-])c1N,inactive: -10.7%
22,CN1CCCC(OC(=O)C(c2ccccc2)c2ccccc2)C1 (stereo unspecified),inactive: -6.89%
23,Clc1ccc(Cl)c(NC2=NCC(CBr)S2)c1 (stereo unspecified),inactive: -2.22%
24,COc1ccccc1OP(=O)(Nc1ccc(C)cn1)Oc1ccccc1OC,inactive: 1.91%
25,Cc1ccc(OP(=O)(Nc2nccs2)Oc2ccc(C)cc2)cc1,inactive: 3.66%

# — PubChem BioAssay AID2112 (National Center for Advancing Translational Sciences (NCATS), 2009)
